## Yeast mating assay B: variants of the scFv Ab-14

Reference: Li et al. 2023, doi:10.1038/s41467-023-39022-2. File: FLAb, binding data.

Binding partner: SARS-CoV-2 spike HR2 peptide, sequence PDVDLGDISGINAS.

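Phage display of a naive human antibody library on the peptide gave the parent. Designed CDR sequences, proposed from the first random library and measured here. Group labels follow the data file (Ctrl: baseline library sampled from a position-specific scoring matrix, with some repeated check sequences; GPLM: also part of the Gaussian process libraries; HC: hill climbing; Gen: genetic algorithm; a sequence that several methods proposed may carry one label only). In AlphaSeq, yeast of one mating type display the scFv and yeast of the other type display the target. Pairs that bind mate more often; barcode pairs of the diploids are counted by sequencing. Scores were corrected for input abundance and mapped to Kd with protein pairs of known affinity run in the same pool. There are six technical replicates.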

Parent: Ab-14, a human scFv built as VH, three GGGGS repeats, VL. Only the CDRs of the heavy chain vary.
VH: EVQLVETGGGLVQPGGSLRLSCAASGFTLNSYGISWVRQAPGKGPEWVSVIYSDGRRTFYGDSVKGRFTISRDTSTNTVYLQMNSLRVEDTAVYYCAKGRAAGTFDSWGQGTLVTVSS
VL: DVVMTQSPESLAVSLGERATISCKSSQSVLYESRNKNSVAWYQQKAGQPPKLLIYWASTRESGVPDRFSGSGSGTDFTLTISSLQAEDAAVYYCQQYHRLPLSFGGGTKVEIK

Changes read parent residue, position, new residue, counted from the first residue of the VH shown.
Scale: log10 of Kd in nM, estimated from mating counts; low values are strong binders.
The mean shown is taken over the replicates in which the pair was detected.
"ND" marks a missing value. The strain was present, yet no cells mated with the target were sequenced in that replicate, which points to weak or no binding.
A sequence that the file lists under several names has all its replicates listed entry by entry, parted by semicolons.
The range of this assay differs from that of the first round, and the authors advise against merging the two.
Of ten entries with the parent sequence, four were seen in most replicates (averages 0.34 to 2.37), three in one and three in none, so single entries are noisy.
The authors averaged sequences with at least three values out of six and counted those with two or fewer as poor binders.
Background: pairings of all heavy chain designs with three empty control strains gave a value in 1% of cases (median 2.08, 5th percentile 0.84). Values in that range, when seen in few replicates, are hard to tell from nonspecific mating. The control count says in how many pairings with the empty strains this scFv gave a signal.

For G99D+D106L [Ctrl], the assay gave ND, ND, ND, 0.52, ND, ND (controls 1 of 18).
For R56M+G61A+S63A+R100S [Ctrl], the assay gave 1.32, 0.72, 0.84, 0.50, 0.85, 0.82 (mean 0.84; controls 0 of 18).
For T28W+S31E+F59E [Ctrl], the assay gave 0.50, 0.97, 0.56, 0.42, -0.15, 1.23 (mean 0.59; controls 0 of 18).
For T28D+G61D+R100K [Ctrl+GPLM_Gen], the assay gave 0.30, 0.46, 0.30, 0.37, 0.06, 0.61; -0.42, 1.11, 0.70, -0.53, -0.04, 0.66 (mean 0.30; controls 0 of 36).
For S31D+A101V+S107Y [Ctrl], the assay gave 1.45, -0.24, 0.05, ND, -0.26, 0.04 (mean 0.21; controls 1 of 18).
For I51M+R100E+A101N+D106S [Ctrl], the assay gave 0.68, ND, ND, ND, ND, ND (controls 0 of 18).
For G103C+F105N+S107M [Ctrl], the assay gave ND, ND, ND, ND, ND, 1.15 (controls 0 of 18).
For F27E+L29I+N30Q+R56L+T58V+R100K+A101H [Ctrl], the assay gave ND, ND, ND, ND, ND, ND (controls 0 of 18).
For G61Q+A102T+D106S+S107V [Ctrl], the assay gave ND, ND, ND, ND, ND, ND (controls 0 of 18).
For S53A+F59A+A101E [Ctrl], the assay gave -0.51, -0.45, -1.03, -0.64, -0.94, -0.64 (mean -0.70; controls 0 of 18).
For T28S+N30E+F59E+G61H+S107T [Ctrl], the assay gave 0.13, ND, 0.27, ND, ND, ND (mean 0.20; controls 1 of 18).
For I34G+G61I+S107T [Ctrl], the assay gave ND, ND, ND, ND, ND, ND (controls 0 of 18).
For R56Q+A101V+A102H [Ctrl], the assay gave ND, ND, ND, ND, ND, ND (controls 0 of 18).
For G61R+S63A [Ctrl], the assay gave ND, ND, ND, ND, ND, ND (controls 1 of 18).
For R100A+T104Q+F105N+D106T [Ctrl], the assay gave ND, ND, ND, ND, ND, ND (controls 0 of 18).
For S53A+A102S [Ctrl], the assay gave ND, 1.06, 1.10, 0.11, 0.01, 0.30 (mean 0.52; controls 1 of 18).
For S31M+G55I+R56E+F59H [Ctrl], the assay gave ND, ND, ND, ND, ND, ND (controls 0 of 18).
For R56F+R100Y+D106H [Ctrl], the assay gave ND, ND, ND, ND, ND, ND (controls 0 of 18).
For L29R+S31E+Y32C+S53A+S107M [Ctrl], the assay gave 0.90, 0.41, 0.06, 0.19, 0.36, 0.58 (mean 0.42; controls 0 of 18).
For T28E+A101N+A102K [Ctrl], the assay gave ND, ND, ND, ND, ND, ND (controls 0 of 18).
For N30Q+G61I [Ctrl], the assay gave ND, ND, 1.81, ND, ND, ND (controls 0 of 18).
For T28D+L29I+R56Y+R100Q [Ctrl], the assay gave 0.76, 1.06, 3.37, 0.97, 0.98, 0.89 (mean 1.34; controls 0 of 18).
For S31E+A101D+A102W [Ctrl], the assay gave ND, ND, ND, ND, ND, ND (controls 0 of 18).
For S35I+S53A [Ctrl], the assay gave ND, ND, ND, ND, ND, ND (controls 0 of 18).
For S63Q+R100Q+G103L+S107A [Ctrl], the assay gave ND, ND, ND, ND, ND, ND (controls 1 of 18).
For F59M+V64N+A101L+A102I [Ctrl], the assay gave ND, ND, ND, ND, ND, ND (controls 0 of 18).
For F27I+S107Q [Ctrl], the assay gave ND, ND, ND, ND, ND, 1.68 (controls 2 of 18).
For T28S+A101H+S107V [Ctrl], the assay gave 2.33, ND, ND, 1.32, 2.17, 1.66 (mean 1.87; controls 0 of 18).
For N30L+F59A+R100W+A101T [Ctrl], the assay gave ND, ND, ND, ND, 2.59, 0.35 (mean 1.47; controls 0 of 18).
For N30D+S53F+F59M [Ctrl], the assay gave ND, ND, ND, ND, ND, ND (controls 0 of 18).
For S31E+F59A+G61T+A101V+A102D+D106S [Ctrl], the assay gave ND, ND, ND, ND, ND, ND (controls 0 of 18).
For S31E+I34V+S53A+G61S+A101Q+S107L [Ctrl], the assay gave 0.31, 0.42, 0.41, 0.26, 0.35, 0.55 (mean 0.38; controls 0 of 18).
For T28S+S31K+S63D [Ctrl], the assay gave 1.42, 1.40, 1.11, 0.84, 1.53, 1.85 (mean 1.36; controls 0 of 18).
For T28S+S31E+T58E+A102E [Ctrl], the assay gave 0.75, 0.56, 0.03, 0.40, -0.17, 0.60 (mean 0.36; controls 0 of 18).
For N30S+F59M+S63F [Ctrl], the assay gave ND, ND, ND, ND, ND, ND (controls 0 of 18).
For N30S+R100D [Ctrl], the assay gave 1.85, 0.84, 1.36, 1.30, 1.31, 1.29 (mean 1.33; controls 1 of 18).
For F27I+L29I+A101N+A102M+T104G+S107E [Ctrl], the assay gave ND, ND, ND, ND, ND, ND (controls 0 of 18).
For T28N+L29V [Ctrl], the assay gave ND, 2.83, 1.98, 0.63, 2.58, 1.68 (mean 1.94; controls 1 of 18).
For G26H+R56M+T58K+S63N+K65V+A101M+T104G+S107K [Ctrl], the assay gave ND, ND, ND, ND, ND, ND (controls 0 of 18).
For T28E+S31Q+T104R+F105T [Ctrl], the assay gave ND, ND, ND, ND, ND, ND (controls 0 of 18).
For T28H+D106E [Ctrl], the assay gave ND, ND, ND, ND, ND, ND (controls 0 of 18).
For S31E+A102M+D106L [Ctrl], the assay gave ND, ND, ND, ND, 1.48, ND (controls 0 of 18).
For T28G+S31D+R56Q+G61I+T104M [Ctrl], the assay gave 0.80, ND, ND, ND, ND, 2.07 (mean 1.43; controls 0 of 18).
For F27A+R56L+V64F+R100D+S107L [Ctrl], the assay gave ND, ND, ND, ND, ND, ND (controls 0 of 18).
For R56E+F59S+G61H+R100T [Ctrl], the assay gave ND, ND, ND, ND, ND, ND (controls 0 of 18).
For S31E+G61K [Ctrl+GPLM_HC], the assay gave 0.08, 0.57, -0.19, 0.38, -0.12, 0.32; 0.59, 0.61, 0.39, 0.44, 0.14, 0.32 (mean 0.30; controls 2 of 36).
For N30T+R56K [Ctrl], the assay gave ND, 1.59, ND, 1.67, 1.91, 1.67 (mean 1.71; controls 1 of 18).
For T28G+G61Q+A102S+G103D+T104G [Ctrl], the assay gave ND, ND, ND, ND, ND, ND (controls 0 of 18).
For K65R+A102K+G103I [Ctrl], the assay gave ND, ND, ND, ND, ND, ND (controls 0 of 18).
For A101V+D106H [Ctrl], the assay gave ND, ND, ND, ND, ND, ND (controls 0 of 18).
For F27E+F59S [Ctrl], the assay gave ND, 1.30, 1.65, 1.84, 1.88, 1.22 (mean 1.58; controls 1 of 18).

The first 8 entries again:

With G99D+D106L [Ctrl] the result was ND, ND, ND, 0.52, ND, ND (controls 1 of 18).
With R56M+G61A+S63A+R100S [Ctrl] the result was 1.32, 0.72, 0.84, 0.50, 0.85, 0.82 (mean 0.84; controls 0 of 18).
With T28W+S31E+F59E [Ctrl] the result was 0.50, 0.97, 0.56, 0.42, -0.15, 1.23 (mean 0.59; controls 0 of 18).
With T28D+G61D+R100K [Ctrl+GPLM_Gen] the result was 0.30, 0.46, 0.30, 0.37, 0.06, 0.61; -0.42, 1.11, 0.70, -0.53, -0.04, 0.66 (mean 0.30; controls 0 of 36).
With S31D+A101V+S107Y [Ctrl] the result was 1.45, -0.24, 0.05, ND, -0.26, 0.04 (mean 0.21; controls 1 of 18).
With I51M+R100E+A101N+D106S [Ctrl] the result was 0.68, ND, ND, ND, ND, ND (controls 0 of 18).
With G103C+F105N+S107M [Ctrl] the result was ND, ND, ND, ND, ND, 1.15 (controls 0 of 18).
With F27E+L29I+N30Q+R56L+T58V+R100K+A101H [Ctrl] the result was ND, ND, ND, ND, ND, ND (controls 0 of 18).